# Data from ChEMBL document CHEMBL5321237 (Eur J Med Chem, 2023).
# Protein sequences, listed by entry. Tags and fused reporters are not part of them.
# UniProt P07333, whole entry: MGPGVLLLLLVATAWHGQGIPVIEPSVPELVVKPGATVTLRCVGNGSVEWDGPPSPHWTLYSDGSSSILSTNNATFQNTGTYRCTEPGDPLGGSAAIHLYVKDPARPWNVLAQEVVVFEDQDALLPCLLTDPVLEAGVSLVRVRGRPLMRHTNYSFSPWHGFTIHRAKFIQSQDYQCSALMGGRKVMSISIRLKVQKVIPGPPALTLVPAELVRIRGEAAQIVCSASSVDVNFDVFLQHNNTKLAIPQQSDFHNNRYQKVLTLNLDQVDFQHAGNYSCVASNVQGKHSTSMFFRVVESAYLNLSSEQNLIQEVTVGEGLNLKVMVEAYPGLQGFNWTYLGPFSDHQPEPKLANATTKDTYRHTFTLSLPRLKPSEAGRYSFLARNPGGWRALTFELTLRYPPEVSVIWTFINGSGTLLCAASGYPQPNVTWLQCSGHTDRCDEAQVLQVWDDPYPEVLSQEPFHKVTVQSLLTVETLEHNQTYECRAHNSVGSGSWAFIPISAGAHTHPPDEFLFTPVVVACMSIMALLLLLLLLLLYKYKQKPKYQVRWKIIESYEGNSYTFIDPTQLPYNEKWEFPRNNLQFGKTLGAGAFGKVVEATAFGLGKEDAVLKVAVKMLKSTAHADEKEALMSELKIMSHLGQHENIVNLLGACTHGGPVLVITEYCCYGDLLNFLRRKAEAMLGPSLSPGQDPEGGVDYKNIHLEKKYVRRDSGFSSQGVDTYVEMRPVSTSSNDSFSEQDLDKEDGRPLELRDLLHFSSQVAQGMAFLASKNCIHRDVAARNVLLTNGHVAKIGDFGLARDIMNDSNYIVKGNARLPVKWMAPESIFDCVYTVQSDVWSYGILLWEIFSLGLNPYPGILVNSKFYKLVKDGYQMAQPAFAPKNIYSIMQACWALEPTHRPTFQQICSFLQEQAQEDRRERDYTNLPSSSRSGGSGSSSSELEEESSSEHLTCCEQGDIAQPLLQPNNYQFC
# Key:
# [1] = target: Macrophage colony-stimulating factor 1 receptor (Homo sapiens, UniProt P07333); assay: Selectivity index, ratio of Kd for non-autoinhibited form of CSF1R (unknown origin) to Kd for autoinhibited form of CSF1R (unknown origin)
# [2] = target: T1, Macrophage colony-stimulating factor 1 receptor (Mus musculus) (UniProt P09581); assay: Inhibition of CSF1-induced CSF1R signalling in mouse BMDM cells assessed as reduction in ERK1/2 phosphorylation by measuring fold change preincubated for 30 mins followed by CSF1 addition and measured after 10 mins relative to pexidartinib; format: cell-based; conditions: time 40.0 min
# T1 sequence (whole entry): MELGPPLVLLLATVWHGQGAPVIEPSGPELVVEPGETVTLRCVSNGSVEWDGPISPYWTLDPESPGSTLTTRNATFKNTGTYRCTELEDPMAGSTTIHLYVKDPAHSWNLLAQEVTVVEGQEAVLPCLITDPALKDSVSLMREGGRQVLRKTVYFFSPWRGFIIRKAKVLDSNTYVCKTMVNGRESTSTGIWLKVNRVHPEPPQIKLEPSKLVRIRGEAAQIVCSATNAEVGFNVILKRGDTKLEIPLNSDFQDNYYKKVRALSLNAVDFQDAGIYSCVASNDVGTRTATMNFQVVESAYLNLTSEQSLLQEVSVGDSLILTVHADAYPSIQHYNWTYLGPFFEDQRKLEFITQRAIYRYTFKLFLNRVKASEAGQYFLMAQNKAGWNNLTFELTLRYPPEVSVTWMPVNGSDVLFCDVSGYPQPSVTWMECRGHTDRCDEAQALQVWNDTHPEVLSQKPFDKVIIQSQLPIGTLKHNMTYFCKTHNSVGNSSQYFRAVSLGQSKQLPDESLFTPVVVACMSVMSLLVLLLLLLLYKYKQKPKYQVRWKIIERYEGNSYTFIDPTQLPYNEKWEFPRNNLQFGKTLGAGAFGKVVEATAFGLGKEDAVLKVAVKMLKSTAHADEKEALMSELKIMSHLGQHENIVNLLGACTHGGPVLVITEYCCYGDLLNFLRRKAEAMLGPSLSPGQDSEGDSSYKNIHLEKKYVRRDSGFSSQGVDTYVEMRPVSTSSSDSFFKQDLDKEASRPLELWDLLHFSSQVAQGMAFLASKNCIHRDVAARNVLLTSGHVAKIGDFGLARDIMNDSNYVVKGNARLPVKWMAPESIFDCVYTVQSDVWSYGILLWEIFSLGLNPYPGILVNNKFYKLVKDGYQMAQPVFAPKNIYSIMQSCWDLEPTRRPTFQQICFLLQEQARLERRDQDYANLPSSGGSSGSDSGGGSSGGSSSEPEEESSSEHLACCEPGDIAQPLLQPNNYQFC
smiles,measurement,setting,value
CN(CC1CCOCC1)c1ncnc2[nH]c(-c3ccc(CO)cc3)nc12,Ratio,[1],18
same,fold change (FC),[2],0.9
